From article PMC4516563 (Biochimica et biophysica acta, 2015)

Assays:
Settings in all cases: disc diffusion, 30-45 ug per disc, 7-10 days; result in words
[1] = system: human pancreatic cancer PANC1
[2] = system: human brain U251N
[3] = system: human colon HCT116

iso-kahalalide F [isoKF]
minimal: cytotoxicity based on the zone assay, PANC-1 [1] | cytotoxicity based on the zone assay, U251N [2] | cytotoxicity based on the zone assay, HCT-116 [3]
